Measurements published in patent US9156831B2, “Chemical compounds” (ASTRAZENECA AB, priority 2013, dated 2015).
pIC50: −log10 of the molar value.

Chains of the proteins cited; added tags and fusions are not shown. Lines headed by an entry give the natural chain unless they say otherwise; changes in a name come on top.
UniProt P42338: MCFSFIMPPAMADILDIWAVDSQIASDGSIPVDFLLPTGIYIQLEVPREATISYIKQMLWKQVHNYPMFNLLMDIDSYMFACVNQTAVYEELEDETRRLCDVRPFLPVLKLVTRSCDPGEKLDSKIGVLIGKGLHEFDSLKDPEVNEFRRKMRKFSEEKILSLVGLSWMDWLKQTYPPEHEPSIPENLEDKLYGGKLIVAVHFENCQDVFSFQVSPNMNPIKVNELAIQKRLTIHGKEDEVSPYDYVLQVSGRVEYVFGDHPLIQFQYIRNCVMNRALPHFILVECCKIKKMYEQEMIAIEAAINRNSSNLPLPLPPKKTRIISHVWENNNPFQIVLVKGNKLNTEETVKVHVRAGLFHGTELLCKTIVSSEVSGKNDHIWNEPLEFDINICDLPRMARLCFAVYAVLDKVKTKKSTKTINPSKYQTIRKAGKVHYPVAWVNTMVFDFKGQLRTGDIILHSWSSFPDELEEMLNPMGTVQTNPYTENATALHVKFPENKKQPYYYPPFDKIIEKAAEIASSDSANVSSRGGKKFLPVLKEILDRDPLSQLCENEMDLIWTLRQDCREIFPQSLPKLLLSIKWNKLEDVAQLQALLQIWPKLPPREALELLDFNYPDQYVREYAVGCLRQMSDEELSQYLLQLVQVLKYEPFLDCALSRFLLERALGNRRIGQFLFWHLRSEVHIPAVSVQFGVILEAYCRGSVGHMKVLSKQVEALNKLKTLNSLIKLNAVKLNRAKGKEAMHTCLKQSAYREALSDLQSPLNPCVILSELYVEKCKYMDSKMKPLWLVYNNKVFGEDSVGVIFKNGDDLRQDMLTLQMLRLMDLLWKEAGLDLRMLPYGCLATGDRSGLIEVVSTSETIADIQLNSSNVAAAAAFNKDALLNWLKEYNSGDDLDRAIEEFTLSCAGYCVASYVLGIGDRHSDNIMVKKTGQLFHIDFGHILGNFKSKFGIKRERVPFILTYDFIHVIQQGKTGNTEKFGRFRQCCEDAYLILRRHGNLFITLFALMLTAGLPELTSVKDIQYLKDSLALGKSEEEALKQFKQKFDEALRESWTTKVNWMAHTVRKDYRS
UniProt P42336, whole entry, looked up: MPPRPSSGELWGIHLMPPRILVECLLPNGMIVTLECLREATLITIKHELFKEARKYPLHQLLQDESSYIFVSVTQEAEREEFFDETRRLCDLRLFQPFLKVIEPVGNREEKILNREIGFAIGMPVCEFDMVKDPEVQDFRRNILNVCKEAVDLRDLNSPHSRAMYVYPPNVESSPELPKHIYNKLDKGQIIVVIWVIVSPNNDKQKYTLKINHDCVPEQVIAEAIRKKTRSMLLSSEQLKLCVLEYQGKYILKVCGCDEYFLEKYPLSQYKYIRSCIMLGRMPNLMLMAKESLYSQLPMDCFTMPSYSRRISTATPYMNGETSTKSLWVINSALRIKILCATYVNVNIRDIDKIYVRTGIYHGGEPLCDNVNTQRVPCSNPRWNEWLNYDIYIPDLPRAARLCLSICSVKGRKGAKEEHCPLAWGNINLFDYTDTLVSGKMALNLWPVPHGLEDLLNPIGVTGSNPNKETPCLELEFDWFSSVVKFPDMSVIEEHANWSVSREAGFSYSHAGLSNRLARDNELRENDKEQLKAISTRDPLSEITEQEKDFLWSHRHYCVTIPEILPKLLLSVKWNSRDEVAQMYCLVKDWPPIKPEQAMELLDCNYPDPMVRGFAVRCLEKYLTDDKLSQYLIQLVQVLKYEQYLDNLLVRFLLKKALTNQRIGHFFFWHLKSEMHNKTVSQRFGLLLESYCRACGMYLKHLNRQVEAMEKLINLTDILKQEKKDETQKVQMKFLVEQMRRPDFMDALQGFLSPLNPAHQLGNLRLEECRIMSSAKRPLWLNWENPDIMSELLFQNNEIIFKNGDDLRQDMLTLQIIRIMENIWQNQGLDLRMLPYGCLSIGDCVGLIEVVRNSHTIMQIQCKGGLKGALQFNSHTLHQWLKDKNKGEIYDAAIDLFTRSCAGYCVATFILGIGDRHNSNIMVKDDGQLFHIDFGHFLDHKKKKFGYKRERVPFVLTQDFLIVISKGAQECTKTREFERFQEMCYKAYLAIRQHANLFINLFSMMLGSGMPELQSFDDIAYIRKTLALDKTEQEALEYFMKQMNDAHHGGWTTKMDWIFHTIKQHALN
UniProt P42336, whole entry K111N, looked up: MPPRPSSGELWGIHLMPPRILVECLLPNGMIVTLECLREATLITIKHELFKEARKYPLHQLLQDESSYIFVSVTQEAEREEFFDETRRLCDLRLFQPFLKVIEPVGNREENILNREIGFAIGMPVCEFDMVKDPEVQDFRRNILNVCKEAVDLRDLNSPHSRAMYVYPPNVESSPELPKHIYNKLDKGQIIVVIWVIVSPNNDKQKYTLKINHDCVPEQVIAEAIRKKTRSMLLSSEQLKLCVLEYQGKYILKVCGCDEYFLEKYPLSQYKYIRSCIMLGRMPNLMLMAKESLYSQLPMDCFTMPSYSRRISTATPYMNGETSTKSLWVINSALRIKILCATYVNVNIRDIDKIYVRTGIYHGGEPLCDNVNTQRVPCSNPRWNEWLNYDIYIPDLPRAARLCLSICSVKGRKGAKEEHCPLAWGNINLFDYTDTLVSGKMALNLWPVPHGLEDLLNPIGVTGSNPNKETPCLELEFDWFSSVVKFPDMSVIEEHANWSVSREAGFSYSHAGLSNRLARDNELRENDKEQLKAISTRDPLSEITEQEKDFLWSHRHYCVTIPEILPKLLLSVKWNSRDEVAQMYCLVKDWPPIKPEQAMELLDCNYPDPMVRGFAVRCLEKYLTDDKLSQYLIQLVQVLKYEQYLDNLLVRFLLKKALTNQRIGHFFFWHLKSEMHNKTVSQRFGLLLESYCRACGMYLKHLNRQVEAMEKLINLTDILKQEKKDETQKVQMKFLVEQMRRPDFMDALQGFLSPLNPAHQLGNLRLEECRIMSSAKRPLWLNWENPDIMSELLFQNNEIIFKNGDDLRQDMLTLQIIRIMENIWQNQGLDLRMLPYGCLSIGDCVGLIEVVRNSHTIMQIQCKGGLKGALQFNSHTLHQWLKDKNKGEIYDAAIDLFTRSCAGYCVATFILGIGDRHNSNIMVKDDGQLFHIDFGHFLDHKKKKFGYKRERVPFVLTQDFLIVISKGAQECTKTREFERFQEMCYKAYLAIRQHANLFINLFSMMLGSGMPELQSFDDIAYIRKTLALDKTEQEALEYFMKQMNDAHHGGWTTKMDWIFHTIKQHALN

Columns and labels:
[1] = biological target: PI3K-β (Homo sapiens (Human), UniProt P42338); assay: In vitro enzyme inhibition assay (Kinase Glo); format: biochemical
Description: (§1) The inhibition of PI3K-β, PI3K-α, PI3K-γ and PI3K-δ was evaluated in a Kinase Glo based enzyme activity assay using human recombinant enzymes. The assay platform indirectly measured the depletion of ATP after incubation with enzyme, PIP2 substrate, ATP and compound.
After completion of the enzyme reaction the remaining ATP was used in a secondary enzymatic reaction, where Luciferase converted beetle luciferin into oxyluciferin under the emission of light. A direct relationship existed between the luminescence measured and the ATP remaining in a completed kinase reaction. Therefore, the luminescence was inversely related to the kinase activity. […]
Compounds in 100% DMSO were added to assay plates by acoustic dispensing. […] The enzyme reaction was stopped after 80 minutes by the addition of Kinase Glo detection solution containing Lucferin and Luciferase (from Kinase Glo® Plus Luminecent Kinase Assay kit (Promega #V3772). Plates were left for 30 minutes at room temperature then read on a Pherastar Instrument with a standard Luminescence filter block. The final concentration of DMSO, ATP and PIP2 in the assay were, 1%, 8 μM, and 80 μM respectively.
IC50 values were calculated using a log curve fitting to a non-linear regression fit. […]

[2] = biological target: PI3K-α (Homo sapiens (Human), UniProt P42336); assay: In vitro enzyme inhibition assay (Kinase Glo); format: biochemical; conditions: Test protocol a; mean of replicates
Description: as §1
After completion of the enzyme reaction the remaining ATP was used in a secondary enzymatic reaction, where Luciferase converted beetle luciferin into oxyluciferin under the emission of light. A direct relationship existed between the luminescence measured and the ATP remaining in a completed kinase reaction. Therefore, the luminescence was inversely related to the kinase activity.
Compounds in 100% DMSO were added to assay plates by acoustic dispensing. PI3K enzyme was added in a Tris buffer (50 mM Tris pH7.4, 0.05% CHAPS, 2.1 mM DTT, and 10 mM magnesium chloride) and allowed to preincubate with compound for 20 minutes prior to addition of substrate solution containing PIP2 and ATP. The enzyme reaction was stopped after 80 minutes by the addition of Kinase Glo detection solution containing Lucferin and Luciferase (from Kinase Glo® Plus Luminecent Kinase Assay kit (Promega #V3772). Plates were left for 30 minutes at room temperature then read on a Pherastar Instrument with a standard Luminescence filter block. The final concentration of DMSO, ATP and PIP2 in the assay were, 1%, 8 μM, and 80 μM respectively.
IC50 values were calculated using a log curve fitting to a non-linear regression fit.

[3] = biological target: PI3K-α (Homo sapiens (Human), UniProt P42336, K111N); assay: Phosphorylated AKT (Thr308) in BT474 cells (PI3K-α cell assay); format: cell-based; conditions: Test protocol c, mean of replicates

## CCn1nc(C2CCN(C(=O)CCO)CC2)nc1-c1cnc(N)c(-c2nnc(C(C)(C)C)o2)n1 [Example 3, 1-(4-(5-(5-amino-6-(5-tert-butyl-1,3,4-oxadiazol-2-yl)pyrazin-2-yl)-1-ethyl-1H-1,2,4-triazol-3-yl)piperidin-1-yl)-3-hydroxypropan-1-one]
[1]
  pIC50: 6.24

## CCn1nc(C2CCN(C(=O)CC(=O)O)CC2)nc1-c1cnc(N)c(-c2nnc(C(C)(C)C)o2)n1 [Example 9, 3-[4-[5-[5-amino-6-(5-tert-butyl-1,3,4-oxadiazol-2-yl)pyrazin-2-yl]-1-ethyl-1,2,4-triazol-3-yl]-1-piperidyl]-3-oxo-propanoic acid]
[2]
  pIC50: > 8.00

## C[C@H](O)CC(=O)N1CCC(c2nc(-c3cnc(N)c(-c4nnc(C(C)(C)C)o4)n3)n(C)n2)CC1 [Example 5, (3S)-1-[4-[5-[5-amino-6-(5-tert-butyl-1,3,4-oxadiazol-2-yl)pyrazin-2-yl]-1-methyl-1,2,4-triazol-3-yl]-1-piperidyl]-3-hydroxy-butan-1-one]
[2]
  pIC50: 7.52

## C[C@@H](O)CC(=O)N1CCC(c2nc(-c3cnc(N)c(-c4nnc(C(C)(C)C)o4)n3)n(C)n2)CC1 [Example 4, (3R)-1-[4-[5-[5-amino-6-(5-tert-butyl-1,3,4-oxadiazol-2-yl)pyrazin-2-yl]-1-methyl-1,2,4-triazol-3-yl]-1-piperidyl]-3-hydroxy-butan-1-one]
[2]
  pIC50: 7.60
[3]
  pIC50: 6.51

## C[C@H](CO)C(=O)N1CCC(c2nc(-c3cnc(N)c(-c4nnc(C(C)(C)C)o4)n3)n(C)n2)CC1 [Example 6, (2R)-1-[4-[5-[5-amino-6-(5-tert-butyl-1,3,4-oxadiazol-2-yl)pyrazin-2-yl]-1-methyl-1,2,4-triazol-3-yl]-1-piperidyl]-3-hydroxy-2-methyl-propan-1-one]
[2]
  pIC50: 7.49
